Results: ChEMBL document CHEMBL4396869, “Design and Synthesis of Selective Phosphodiesterase 4D (PDE4D) Allosteric Inhibitors for the Treatment of Fragile X Syndrome and Other Brain Disorders” (J Med Chem, 2019)

Columns and labels:
[1] = organism: Homo sapiens; experiment: Selectivity ratio of IC50 for recombinant human His6-tagged PDE4B1 UCR1 S133D mutant expressed in baculovirus infected Sf9 insect cells to IC50 for recombinant human His6-tagged PDE4D7 UCR1 S129D mutant expressed in baculovirus infected Sf9 insect cells
[2] = organism: Homo sapiens; experiment: Selectivity ratio of IC50 for recombinant human wild-type His6-tagged PDE4D7 UCR1 domain (S129 residues) expressed in baculovirus infected Sf9 insect cells to IC50 for recombinant human His6-tagged PDE4D7 UCR1 S129D mutant expressed in baculovirus infected Sf9 insect cells

CN(c1ccc(CC(N)=O)cc1)c1cc(-c2cccc(Cl)c2)nc2c1CCC2
Ratio IC50 [1]: 4

CNC(=O)Cc1ccc(Nc2cc(-c3cccc(Cl)c3)nc3c2CCC3)cc1
Ratio IC50 [2]: 15
Ratio IC50 [1]: 1

NC(=O)Cc1ccc(S(=O)(=O)c2cc(-c3cccc(Cl)c3)nc3c2CCC3)cc1
Ratio IC50 [1]: 8

NC(=O)Cc1ccc(Cc2cc(-c3cccc(Cl)c3)nc3c2CCC3)cc1
Ratio IC50 [2]: 94
Ratio IC50 [1]: 16

CCc1cc(Nc2ccc(CCO)cc2)nc(-c2cccc(Cl)c2)n1
Ratio IC50 [2]: 135
Ratio IC50 [1]: 52

NC(=O)CCc1ccc(Nc2cc(-c3cccc(Cl)c3)nc3c2CCC3)cc1
Ratio IC50 [2]: 37
Ratio IC50 [1]: 5

CN(C)C(=O)Cc1ccc(Nc2cc(-c3cccc(Cl)c3)nc3c2CCC3)cc1
Ratio IC50 [2]: 18
Ratio IC50 [1]: 7

CCc1cc(Cc2ccc(CCO)cc2)nc(-c2cccc(Cl)c2)n1
Ratio IC50 [2]: 267
Ratio IC50 [1]: 292

CCc1nc(Nc2ccc(CO)cc2)nc(-c2cccc(Cl)c2)n1
Ratio IC50 [2]: 30
Ratio IC50 [1]: 9

CCc1cc(Oc2ccc(CC(N)=O)cc2)nc(-c2cccc(Cl)c2)n1
Ratio IC50 [2]: 69
Ratio IC50 [1]: 27

CCc1cc(Oc2ccc(CCO)cc2)nc(-c2cccc(Cl)c2)n1
Ratio IC50 [2]: 139
Ratio IC50 [1]: 32

OCCc1cccc(Nc2cc(-c3cccc(Cl)c3)nc3c2CCC3)c1
Ratio IC50 [2]: 28
Ratio IC50 [1]: 6

CCc1nc(Nc2ccc(CCCO)cc2)nc(-c2cccc(Cl)c2)n1
Ratio IC50 [2]: 135
Ratio IC50 [1]: 55
